Biological target: T1, HDAC4 (mouse (endogenous in hippocampal tissue), UniProt Q6NZM9 1-1076)
T1 sequence (looked up): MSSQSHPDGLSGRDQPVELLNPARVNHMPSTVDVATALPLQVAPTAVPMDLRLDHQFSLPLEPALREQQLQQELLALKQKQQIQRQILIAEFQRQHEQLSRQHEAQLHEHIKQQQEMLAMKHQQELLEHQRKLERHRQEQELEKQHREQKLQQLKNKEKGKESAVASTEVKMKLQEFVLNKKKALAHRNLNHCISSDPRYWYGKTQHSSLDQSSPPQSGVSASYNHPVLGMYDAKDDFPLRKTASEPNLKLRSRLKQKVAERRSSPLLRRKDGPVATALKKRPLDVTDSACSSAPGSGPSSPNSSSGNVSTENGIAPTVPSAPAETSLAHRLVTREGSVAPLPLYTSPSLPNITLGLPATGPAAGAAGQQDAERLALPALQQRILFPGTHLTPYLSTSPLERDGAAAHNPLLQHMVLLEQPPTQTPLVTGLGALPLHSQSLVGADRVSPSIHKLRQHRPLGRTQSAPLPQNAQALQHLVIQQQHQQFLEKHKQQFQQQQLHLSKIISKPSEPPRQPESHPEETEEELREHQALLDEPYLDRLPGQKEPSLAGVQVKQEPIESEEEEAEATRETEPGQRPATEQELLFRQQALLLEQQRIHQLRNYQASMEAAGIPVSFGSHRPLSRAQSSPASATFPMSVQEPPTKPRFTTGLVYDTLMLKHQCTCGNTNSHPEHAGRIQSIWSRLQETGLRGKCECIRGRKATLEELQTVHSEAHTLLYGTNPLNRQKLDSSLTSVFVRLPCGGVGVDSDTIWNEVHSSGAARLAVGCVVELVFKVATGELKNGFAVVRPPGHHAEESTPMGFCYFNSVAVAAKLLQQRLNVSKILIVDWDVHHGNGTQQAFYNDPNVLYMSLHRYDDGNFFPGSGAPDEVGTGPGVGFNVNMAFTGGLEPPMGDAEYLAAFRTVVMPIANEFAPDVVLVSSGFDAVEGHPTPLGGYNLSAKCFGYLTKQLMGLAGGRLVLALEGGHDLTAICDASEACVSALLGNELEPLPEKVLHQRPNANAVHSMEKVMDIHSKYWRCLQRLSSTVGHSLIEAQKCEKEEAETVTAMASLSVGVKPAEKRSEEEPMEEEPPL
Assay: co-IP

fold change AD vs WT of the co-IP band ratio GluA1/HDAC4: 0.73 fold (AD vs WT)
B1: GluA1 subunit of AMPA receptor (AMPAR) (receptor, mouse (endogenous in hippocampal tissue), UniProt P23818 19-907, looked up)
chain: ANFPNNIQIGGLFPNQQSQEHAAFRFALSQLTEPPKLLPQIDIVNISDSFEMTYRFCSQFSKGVYAIFGFYERRTVNMLTSFCGALHVCFITPSFPVDTSNQFVLQLRPELQEALISIIDHYKWQTFVYIYDADRGLSVLQRVLDTAAEKNWQVTAVNILTTTEEGYRMLFQDLEKKKERLVVVDCESERLNAILGQIVKLEKNGIGYHYILANLGFMDIDLNKFKESGANVTGFQLVNYTDTIPARIMQQWRTSDARDHTRVDWKRPKYTSALTYDGVKVMAEAFQSLRRQRIDISRRGNAGDCLANPAVPWGQGIDIQRALQQVRFEGLTGNVQFNEKGRRTNYTLHVIEMKHDGIRKIGYWNEDDKFVPAATDAQAGGDNSSVQNRTYIVTTILEDPYVMLKKNANQFEGNDRYEGYCVELAAEIAKHVGYSYRLEIVSDGKYGARDPDTKAWNGMVGELVYGRADVAVAPLTITLVREEVIDFSKPFMSLGISIMIKKPQKSKPGVFSFLDPLAYEIWMCIVFAYIGVSVVLFLVSRFSPYEWHSEEFEEGRDQTTSDQSNEFGIFNSLWFSLGAFMQQGCDISPRSLSGRIVGGVWWFFTLIIISSYTANLAAFLTVERMVSPIESAEDLAKQTEIAYGTLEAGSTKEFFRRSKIAVFEKMWTYMKSAEPSVFVRTTEEGMIRVRKSKGKYAYLLESTMNEYIEQRKPCDTMKVGGNLDSKGYGIATPKGSALRGPVNLAVLKLSEQGVLDKLKSKWWYDKGECGSKDSGSKDKTSALSLSNVAGVFYILIGGLGLAMLVALIEFCYKSRSESKRMKGFCLIPQQSINEAIRTSTLPRNSGAGASGGSGSGENGRVVSQDFPKSMQSIPCMSHSSGMPLGATGL

— PMC10099707 (Neuropathology and Applied Neurobiology, 2022)
